# Experimental data: US20100092398A1, “ANTIMICROBIAL COMPOSITIONS AND APPLICATIONS THEREFORE” (priority 2004, published 2010)
# Experiments:
# Test in all cases: Minimal effective bactericidal concentration, agar dilution technique
# Conditions in all cases: 10% water solubilised solutions, Vitamin E emulsifier; 10^5 to 10^6 bacteria/ml
# S. aureus = test system: S. aureus
# E. coli = test system: E. coli
# P. aeruginosa = test system: P. aeruginosa
# Salmonella = test system: Salmonella
# Listeria = test system: Listeria
smiles,measurement,setting,value
CC1=CCC(O)(C(C)C)CC1 (centres unmarked) [terpinen-4-ol],minimal effective bacterial concentration (killed 99.99% of the bacteria),S. aureus,250 ppm
same,minimal effective bacterial concentration (killed 99.99% of the bacteria),E. coli,No level (>500 ppm)
same,minimal effective bacterial concentration (killed 99.99% of the bacteria),P. aeruginosa,No level (>500 ppm)
same,minimal effective bacterial concentration (killed 99.99% of the bacteria),Salmonella,No level (>500 ppm)
same,minimal effective bacterial concentration (killed 99.99% of the bacteria),Listeria,No level (>500 ppm)
